Data taken from PMC6070540, “SUMO-mediated regulation of NLRP3 modulates inflammasome activity” (Nature Communications, 2018).

Tested on: caspase-1
Assay: Caspase-1 cleavage assay in 293T-ASC-caspase-1 cells
Type: cell-based, human
Conditions: transfected 293T-ASC-caspase-1 cells; p20 immunoblot
Protocol: For caspase-1 cleavage assays 1 × 10^5 HEK293T-ASC-caspase-1 cells were plated in 24-well plates and transfected with a total of 600 ng of DNA the following day. Cells were lysed in 80 μl of DISC lysis buffer (20 mM Tris-HCL pH 7.5, 150 mM NaCl, 2 mM EDTA, 1% Triton X-100, 10% Glycerol) supplemented with 2% SDS. To shred genomic DNA cell lysates were passed through 0.8 ml columns (Pierce). Lysates were quantified using BCA protein assay kit (Pierce) and 6× SDS loading dye added. Samples were boiled for 5 min before separating by SDS-PAGE using NuPAGE Novex 4–12% Bis-Tris 1.0 mm 20 well precast midi protein gels (Life Technologies) in MES buffer. Caspase-1 p20 antibody (Bally-1, human, Adipogen) was used to detect total and cleaved caspase-1 in cell lysate.

Q: “WT NLRP3: wild-type NLRP3 expressed by transfection” was tested. Which “ability of NLRP3 to activate caspase-1” value did it give?
A: The value was “stimulated activation of caspase-1”.
